Earlier results, collected in patent US20110105449A1, “DRY POWDER FORMULATIONS COMPRISING ASCORBIC ACID DERIVATES” (ASTRAZENECA R&D, priority 2007, published 2011).

Q: For salbutamol sulphate [SBS], which “water solubility (in words)” value is on record?
A: highly water-soluble
